{
  "sequences": {"note": "The chains behind the UniProt entries cited, without tags or fusion partners.", "UniProt P35222, whole entry": "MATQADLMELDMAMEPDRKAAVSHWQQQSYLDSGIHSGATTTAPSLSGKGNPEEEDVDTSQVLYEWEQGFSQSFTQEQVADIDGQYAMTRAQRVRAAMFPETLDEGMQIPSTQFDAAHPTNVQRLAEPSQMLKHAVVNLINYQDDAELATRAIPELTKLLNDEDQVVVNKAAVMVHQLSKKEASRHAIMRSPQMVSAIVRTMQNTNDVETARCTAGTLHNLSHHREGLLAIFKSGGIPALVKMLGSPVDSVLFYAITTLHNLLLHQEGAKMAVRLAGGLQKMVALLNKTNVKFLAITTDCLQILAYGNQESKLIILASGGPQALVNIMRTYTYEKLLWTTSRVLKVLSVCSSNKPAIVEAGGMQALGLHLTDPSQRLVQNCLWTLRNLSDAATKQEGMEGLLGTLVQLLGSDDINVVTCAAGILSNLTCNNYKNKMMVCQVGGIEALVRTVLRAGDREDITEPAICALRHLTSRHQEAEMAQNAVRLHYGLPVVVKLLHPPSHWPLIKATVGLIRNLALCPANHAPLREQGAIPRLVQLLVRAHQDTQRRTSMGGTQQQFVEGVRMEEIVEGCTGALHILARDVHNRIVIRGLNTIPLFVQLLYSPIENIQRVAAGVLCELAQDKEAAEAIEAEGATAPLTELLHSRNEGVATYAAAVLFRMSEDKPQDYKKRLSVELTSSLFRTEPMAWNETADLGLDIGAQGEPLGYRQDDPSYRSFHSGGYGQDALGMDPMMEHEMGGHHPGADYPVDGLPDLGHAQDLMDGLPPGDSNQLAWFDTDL"},
  "source": "patent US20240360179A1",
  "about": "“STAPLED PEPTIDES AND METHODS THEREOF” (FOG PHARMACEUTICALS, INC., priority 2021, published 2024)",
  "key": {"[1]": {"biological_target": "beta-catenin/TCF4 interaction (Homo sapiens, UniProt P35222)", "format": "cell-based", "design": "host or cells: HEK293", "conditions": "read-out: NanoBRET Abs IC50"}, "[2]": {"biological_target": "T1, full-length B-Catenin (Uniprot ID P35222) (Homo sapiens, UniProt P35222)", "T1 construct": "10 nM full-length B-Catenin (Uniprot ID P35222)", "format": "binding", "conditions": "read-out: beta-Catenin FP IC50"}, "[3]": {"conditions": "competition fluorescence polarization"}},
  "note": "Like-named read-outs stand apart in the source and are kept apart here.",
  "data": [
    {"substance": "Ac-PL3-Asp-Npg-B5-Asp-3COOHF-Aib-Ala-Phe-TriAzLys*3-R3iPrPyrSc7-3Thi-BztA-sAla*3-Ala-NH2 [I-1814]", "values": [
      {"measurement": "IC50", "setting": "[1]", "result": "> 10", "unit": "µM"},
      {"measurement": "IC50", "setting": "[2]", "result": "< 0.05", "unit": "µM"}
    ]},
    {"substance": "Ac-PL3-Asp-Npg-B5-Asp-3COOHF-Aib-Ala-Phe-TriAzLys*3-S3MePyrSc7-3Thi-BztA-sAla*3-Ala-NH2 [I-1809]", "values": [
      {"measurement": "IC50", "setting": "[1]", "result": "1.5 to 3", "unit": "µM"},
      {"measurement": "IC50", "setting": "[2]; [3]", "result": "< 0.05", "unit": "µM"}
    ]},
    {"substance": "Ac-PL3-Asp-Npg-B5-Asp-3COOHF-Aib-Ala-Phe-TriAzLys*3-S3iPrPyrSc7-3Thi-BztA-sAla*3-Ala-NH2 [I-1812]", "values": [
      {"measurement": "IC50", "setting": "[1]", "result": "> 10", "unit": "µM"},
      {"measurement": "IC50", "setting": "[2]", "result": "< 0.05", "unit": "µM"}
    ]},
    {"substance": "Ac-PL3-Asp-Npg-B5-Asp-3COOHF-Aib-Ala-Phe-TriAzLys*3-S3iPrPyrSc7-3Thi-BztA-sAla*3-Ala-NH2 [I-1813]", "values": [
      {"measurement": "IC50", "setting": "[1]", "result": "3 to 10", "unit": "µM"},
      {"measurement": "IC50", "setting": "[2]", "result": "< 0.05", "unit": "µM"}
    ]},
    {"substance": "Ac-PL3-Asp-Npg-B5-Asp-3COOHF-Aib-Ala-Phe-dDab*3-PyrS2-3Thi-BztA-GlnR*3-Ala-Ala-Ala-Ala-Ala-NH2 [I-790]", "values": [
      {"measurement": "IC50", "setting": "[1]", "result": "3 to 10", "unit": "µM"},
      {"measurement": "IC50", "setting": "[2]; [3]", "result": "< 0.05", "unit": "µM"}
    ]},
    {"substance": "Ac-PL3-Asp-Npg-B5-Asp-3COOHF-Aib-Ala-Phe-dOrn*3-PyrS2-3Thi-BztA-AsnR*3-Ala-NH2 [I-793]", "values": [
      {"measurement": "IC50", "setting": "[1]", "result": "> 10", "unit": "µM"},
      {"measurement": "IC50", "setting": "[2]; [3]", "result": "< 0.05", "unit": "µM"}
    ]},
    {"substance": "Ac-PL3-Asp-Npg-B5-Asp-3COOHF-Aib-Ala-Phe-dOrn*3-PyrS2-3Thi-BztA-AsnR*3-NH2 [I-792]", "values": [
      {"measurement": "IC50", "setting": "[1]", "result": "> 10", "unit": "µM"},
      {"measurement": "IC50", "setting": "[2]; [3]", "result": "< 0.05", "unit": "µM"}
    ]},
    {"substance": "Ac-PL3-Asp-Npg-B5-Asp-3COOHF-Aib-Ala_D3-Phe-Lys*3-PyrS2-3Thi-BztA-GlnR*3-Ala D3-NH2 [I-803]", "values": [
      {"measurement": "IC50", "setting": "[1]", "result": "< 1.5", "unit": "µM"},
      {"measurement": "IC50", "setting": "[2]; [3]", "result": "< 0.05", "unit": "µM"}
    ]},
    {"substance": "Ac-PL3-Asp-Npg-B5-Asp-3COOHF-Aib-Gln-Phe-Lys*3-PyrS2-3Thi-BztA-GlnR*3-Ala-NH2 [I-452]", "values": [
      {"measurement": "IC50", "setting": "[1]; absolute IC50", "result": "> 10", "unit": "µM"},
      {"measurement": "IC50", "setting": "[2]; [3]", "result": "< 0.05", "unit": "µM"}
    ]},
    {"substance": "Ac-PL3-Asp-Npg-B5-Asp-3COOHF-Aib-Leu-Phe-Lys*3-PyrS2-3Thi-BztA-GlnR*3-Ala-NH2 [I-450]", "values": [
      {"measurement": "IC50", "setting": "[1]; absolute IC50", "result": "> 10", "unit": "µM"},
      {"measurement": "IC50", "setting": "[2]; [3]", "result": "< 0.05", "unit": "µM"}
    ]},
    {"substance": "Ac-PL3-Asp-Npg-B5-Asp-3COOHF-Aib-Lys-Phe-Lys*3-PyrS2-3Thi-BztA-GlnR*3-Ala-NH2 [I-455]", "values": [
      {"measurement": "IC50", "setting": "[1]; absolute IC50", "result": "> 10", "unit": "µM"},
      {"measurement": "IC50", "setting": "[2]; [3]", "result": "< 0.05", "unit": "µM"}
    ]},
    {"substance": "Ac-PL3-Asp-Npg-B5-Asp-3COOHF-Aib-Val-Phe-Lys*3-PyrS2-3Thi-BztA-GlnR*3-Ala-NH2 [I-448]", "values": [
      {"measurement": "IC50", "setting": "[1]; absolute IC50", "result": "> 10", "unit": "µM"},
      {"measurement": "IC50", "setting": "[2]; [3]", "result": "< 0.05", "unit": "µM"}
    ]},
    {"substance": "Ac-PL3-Asp-Npg-B5-Asp-3COOHF-Ala-Ala-Phe-Leu-[Red][Gly]Dap-3thi-BztA-Ala-GlnR-NH2 [I-1213]", "values": [
      {"measurement": "IC50", "setting": "[1]", "result": "> 10", "unit": "µM"},
      {"measurement": "IC50", "setting": "[2]; [3]", "result": "0.05 to 0.2", "unit": "µM"}
    ]},
    {"substance": "Ac-PL3-Asp-Npg-B5-Asp-3COOHF-Ala-Ala-Phe-Leu-[Red][NHPent]Dap-3thi-BztA-Ala-GlnR-NH2 [I-1214]", "values": [
      {"measurement": "IC50", "setting": "[1]", "result": "> 10", "unit": "µM"},
      {"measurement": "IC50", "setting": "[2]; [3]", "result": "0.05 to 0.2", "unit": "µM"}
    ]},
    {"substance": "Ac-PL3-Asp-Npg-B5-Asp-3COOHF-Ala-Ala-Phe-Leu-[SBut][CH2CH2CH2NH]Dap-3thi-BztA-Ala-GlnR-NH2 [I-1216]", "values": [
      {"measurement": "IC50", "setting": "[1]", "result": "> 10", "unit": "µM"},
      {"measurement": "IC50", "setting": "[2]; [3]", "result": "0.05 to 0.2", "unit": "µM"}
    ]},
    {"substance": "Ac-PL3-Asp-Npg-B5-Asp-3COOHF-Ala-Ala-Phe-Leu-[SBut][CH2CH2NH]Dap-3thi-BztA-Ala-GlnR-NH2 [I-1215]", "values": [
      {"measurement": "IC50", "setting": "[1]", "result": "> 10", "unit": "µM"},
      {"measurement": "IC50", "setting": "[2]; [3]", "result": "< 0.05", "unit": "µM"}
    ]},
    {"substance": "Ac-PL3-Asp-Npg-B5-Asp-3COOHF-Ala-Ala-Phe-Lys*3-PyrS2-2F3MeF-34ClF-GlnR*3-Ala-NH2 [I-823]", "values": [
      {"measurement": "IC50", "setting": "[1]", "result": "3 to 10", "unit": "µM"},
      {"measurement": "IC50", "setting": "[2]; [3]", "result": "< 0.05", "unit": "µM"}
    ]},
    {"substance": "Ac-PL3-Asp-Npg-B5-Asp-3COOHF-Ala-Ala-Phe-Lys*3-PyrS2-2F3MeF-34ClF-GlnR*3-Leu-NH2 [I-827]", "values": [
      {"measurement": "IC50", "setting": "[1]", "result": "3 to 10", "unit": "µM"},
      {"measurement": "IC50", "setting": "[2]; [3]", "result": "< 0.05", "unit": "µM"}
    ]},
    {"substance": "Ac-PL3-Asp-Npg-B5-Asp-3COOHF-Ala-Ala-Phe-Lys*3-PyrS2-2F3MeF-34ClF-GlnR*3-Val-Ser-NH2 [I-826]", "values": [
      {"measurement": "IC50", "setting": "[1]", "result": "3 to 10", "unit": "µM"},
      {"measurement": "IC50", "setting": "[2]; [3]", "result": "< 0.05", "unit": "µM"}
    ]},
    {"substance": "Ac-PL3-Asp-Npg-B5-Asp-3COOHF-Ala-Ala-Phe-Lys*3-PyrS2-2F3MeF-BztA-AsnR*3-Ala-NH2 [I-59]", "values": [
      {"measurement": "IC50", "setting": "[1]", "result": "> 10", "unit": "µM"},
      {"measurement": "IC50", "setting": "[2]; [3]", "result": "0.05 to 0.2", "unit": "µM"}
    ]},
    {"substance": "Ac-PL3-Asp-Npg-B5-Asp-3COOHF-Ala-Ala-Phe-Lys*3-PyrS2-2F3MeF-BztA-GlnR*3-Val-NH2 [I-820]", "values": [
      {"measurement": "IC50", "setting": "[1]", "result": "3 to 10", "unit": "µM"},
      {"measurement": "IC50", "setting": "[2]; [3]", "result": "< 0.05", "unit": "µM"}
    ]},
    {"substance": "Ac-PL3-Asp-Npg-B5-Asp-3COOHF-Ala-Ala-Phe-Lys*3-PyrS2-2F3MeF-BztA-GlnR*3-Val-Ser-NH2 [I-822]", "values": [
      {"measurement": "IC50", "setting": "[1]", "result": "1.5 to 3", "unit": "µM"},
      {"measurement": "IC50", "setting": "[2]; [3]", "result": "< 0.05", "unit": "µM"}
    ]},
    {"substance": "Ac-PL3-Asp-Npg-B5-Asp-3COOHF-Ala-Ala-Phe-Lys*3-PyrS2-Phe-34ClF-GlnR*3-Ala-NH2 [I-831]", "values": [
      {"measurement": "IC50", "setting": "[1]", "result": "3 to 10", "unit": "µM"},
      {"measurement": "IC50", "setting": "[2]; [3]", "result": "< 0.05", "unit": "µM"}
    ]},
    {"substance": "Ac-PL3-Asp-Npg-B5-Asp-3COOHF-Ala-Ala-Phe-Lys*3-PyrS2-Phe-34ClF-GlnR*3-Leu-NH2 [I-837]", "values": [
      {"measurement": "IC50", "setting": "[1]", "result": "3 to 10", "unit": "µM"},
      {"measurement": "IC50", "setting": "[2]; [3]", "result": "< 0.05", "unit": "µM"}
    ]},
    {"substance": "Ac-PL3-Asp-Npg-B5-Asp-3COOHF-Ala-Ala-Phe-Lys*3-PyrS2-Phe-34ClF-GlnR*3-Leu-Ser-NH2 [I-839]", "values": [
      {"measurement": "IC50", "setting": "[1]", "result": "1.5 to 3", "unit": "µM"},
      {"measurement": "IC50", "setting": "[2]; [3]", "result": "< 0.05", "unit": "µM"}
    ]},
    {"substance": "Ac-PL3-Asp-Npg-B5-Asp-3COOHF-Ala-Ala-Phe-Lys*3-PyrS2-Phe-34ClF-GlnR*3-Leu-Ser-NH2 [I-840]", "values": [
      {"measurement": "IC50", "setting": "[1]", "result": "3 to 10", "unit": "µM"},
      {"measurement": "IC50", "setting": "[2]; [3]", "result": "< 0.05", "unit": "µM"}
    ]},
    {"substance": "Ac-PL3-Asp-Npg-B5-Asp-3COOHF-Ala-Ala-Phe-Lys*3-PyrS2-Phe-34ClF-GlnR*3-Val-NH2 [I-833]", "values": [
      {"measurement": "IC50", "setting": "[1]", "result": "3 to 10", "unit": "µM"},
      {"measurement": "IC50", "setting": "[2]; [3]", "result": "< 0.05", "unit": "µM"}
    ]}
  ]
}
